US12590088B2 (dated 2026)
Like-named read-outs stand apart in the source and are kept apart here.

Chains of the proteins cited; added tags and fusions are not shown. Lines headed by an entry give the natural chain unless they say otherwise; changes in a name come on top.
UniProt O60674: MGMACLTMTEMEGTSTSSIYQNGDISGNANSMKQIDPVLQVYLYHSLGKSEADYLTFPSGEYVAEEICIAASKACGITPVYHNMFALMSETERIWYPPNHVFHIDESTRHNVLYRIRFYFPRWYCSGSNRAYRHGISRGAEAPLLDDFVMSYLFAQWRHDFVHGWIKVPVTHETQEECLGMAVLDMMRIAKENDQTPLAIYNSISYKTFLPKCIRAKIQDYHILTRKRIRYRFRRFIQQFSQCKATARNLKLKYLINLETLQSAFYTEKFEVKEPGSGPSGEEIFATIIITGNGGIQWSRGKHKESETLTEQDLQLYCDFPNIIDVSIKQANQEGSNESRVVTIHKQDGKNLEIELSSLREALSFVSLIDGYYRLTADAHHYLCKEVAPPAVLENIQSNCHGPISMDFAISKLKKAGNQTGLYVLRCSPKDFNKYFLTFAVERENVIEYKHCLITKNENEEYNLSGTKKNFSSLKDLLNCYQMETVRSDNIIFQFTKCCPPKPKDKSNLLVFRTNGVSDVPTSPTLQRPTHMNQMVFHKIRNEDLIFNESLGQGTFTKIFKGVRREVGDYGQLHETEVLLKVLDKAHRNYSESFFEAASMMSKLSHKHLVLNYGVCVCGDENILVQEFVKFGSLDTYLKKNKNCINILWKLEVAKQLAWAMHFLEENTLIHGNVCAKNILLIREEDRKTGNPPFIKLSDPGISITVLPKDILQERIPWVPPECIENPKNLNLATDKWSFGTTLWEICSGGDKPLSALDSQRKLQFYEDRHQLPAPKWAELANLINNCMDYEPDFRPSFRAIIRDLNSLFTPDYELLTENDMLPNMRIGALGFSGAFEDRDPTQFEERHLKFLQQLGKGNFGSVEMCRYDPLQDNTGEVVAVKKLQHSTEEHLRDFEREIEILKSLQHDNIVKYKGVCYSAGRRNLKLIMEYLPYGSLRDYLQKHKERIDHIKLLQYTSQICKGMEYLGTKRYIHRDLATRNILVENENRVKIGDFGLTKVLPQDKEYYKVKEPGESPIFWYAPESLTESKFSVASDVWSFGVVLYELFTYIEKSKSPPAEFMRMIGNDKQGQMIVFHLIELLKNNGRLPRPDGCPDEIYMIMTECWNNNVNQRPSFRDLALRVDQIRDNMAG
UniProt P23458: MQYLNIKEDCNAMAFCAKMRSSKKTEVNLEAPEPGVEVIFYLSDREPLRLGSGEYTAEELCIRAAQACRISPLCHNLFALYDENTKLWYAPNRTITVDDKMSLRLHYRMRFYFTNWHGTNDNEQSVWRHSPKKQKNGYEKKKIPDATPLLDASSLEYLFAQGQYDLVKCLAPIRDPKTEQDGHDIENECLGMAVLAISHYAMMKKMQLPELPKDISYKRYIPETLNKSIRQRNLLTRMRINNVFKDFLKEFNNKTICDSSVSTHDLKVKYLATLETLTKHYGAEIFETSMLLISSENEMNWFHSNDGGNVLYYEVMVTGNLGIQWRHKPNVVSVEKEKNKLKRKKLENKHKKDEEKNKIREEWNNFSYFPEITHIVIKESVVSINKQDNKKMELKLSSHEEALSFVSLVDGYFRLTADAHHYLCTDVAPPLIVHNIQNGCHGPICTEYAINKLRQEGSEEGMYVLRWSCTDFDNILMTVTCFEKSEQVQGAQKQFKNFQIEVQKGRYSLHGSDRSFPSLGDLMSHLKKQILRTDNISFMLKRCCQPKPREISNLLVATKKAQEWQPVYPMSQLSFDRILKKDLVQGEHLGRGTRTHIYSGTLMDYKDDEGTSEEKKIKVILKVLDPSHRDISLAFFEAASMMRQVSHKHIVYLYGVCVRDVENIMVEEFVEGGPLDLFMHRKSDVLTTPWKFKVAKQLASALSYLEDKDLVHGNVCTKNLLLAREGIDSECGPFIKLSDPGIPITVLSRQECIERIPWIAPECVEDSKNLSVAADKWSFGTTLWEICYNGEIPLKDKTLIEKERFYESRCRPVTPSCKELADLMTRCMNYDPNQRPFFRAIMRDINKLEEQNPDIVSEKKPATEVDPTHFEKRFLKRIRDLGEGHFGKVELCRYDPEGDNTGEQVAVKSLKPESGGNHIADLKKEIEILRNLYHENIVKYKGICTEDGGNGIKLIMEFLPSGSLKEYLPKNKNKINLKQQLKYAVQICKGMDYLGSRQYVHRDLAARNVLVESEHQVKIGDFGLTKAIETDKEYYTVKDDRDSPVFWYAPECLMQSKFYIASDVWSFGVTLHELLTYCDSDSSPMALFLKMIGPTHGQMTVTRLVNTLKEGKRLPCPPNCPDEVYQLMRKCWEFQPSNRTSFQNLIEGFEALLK
UniProt P29597: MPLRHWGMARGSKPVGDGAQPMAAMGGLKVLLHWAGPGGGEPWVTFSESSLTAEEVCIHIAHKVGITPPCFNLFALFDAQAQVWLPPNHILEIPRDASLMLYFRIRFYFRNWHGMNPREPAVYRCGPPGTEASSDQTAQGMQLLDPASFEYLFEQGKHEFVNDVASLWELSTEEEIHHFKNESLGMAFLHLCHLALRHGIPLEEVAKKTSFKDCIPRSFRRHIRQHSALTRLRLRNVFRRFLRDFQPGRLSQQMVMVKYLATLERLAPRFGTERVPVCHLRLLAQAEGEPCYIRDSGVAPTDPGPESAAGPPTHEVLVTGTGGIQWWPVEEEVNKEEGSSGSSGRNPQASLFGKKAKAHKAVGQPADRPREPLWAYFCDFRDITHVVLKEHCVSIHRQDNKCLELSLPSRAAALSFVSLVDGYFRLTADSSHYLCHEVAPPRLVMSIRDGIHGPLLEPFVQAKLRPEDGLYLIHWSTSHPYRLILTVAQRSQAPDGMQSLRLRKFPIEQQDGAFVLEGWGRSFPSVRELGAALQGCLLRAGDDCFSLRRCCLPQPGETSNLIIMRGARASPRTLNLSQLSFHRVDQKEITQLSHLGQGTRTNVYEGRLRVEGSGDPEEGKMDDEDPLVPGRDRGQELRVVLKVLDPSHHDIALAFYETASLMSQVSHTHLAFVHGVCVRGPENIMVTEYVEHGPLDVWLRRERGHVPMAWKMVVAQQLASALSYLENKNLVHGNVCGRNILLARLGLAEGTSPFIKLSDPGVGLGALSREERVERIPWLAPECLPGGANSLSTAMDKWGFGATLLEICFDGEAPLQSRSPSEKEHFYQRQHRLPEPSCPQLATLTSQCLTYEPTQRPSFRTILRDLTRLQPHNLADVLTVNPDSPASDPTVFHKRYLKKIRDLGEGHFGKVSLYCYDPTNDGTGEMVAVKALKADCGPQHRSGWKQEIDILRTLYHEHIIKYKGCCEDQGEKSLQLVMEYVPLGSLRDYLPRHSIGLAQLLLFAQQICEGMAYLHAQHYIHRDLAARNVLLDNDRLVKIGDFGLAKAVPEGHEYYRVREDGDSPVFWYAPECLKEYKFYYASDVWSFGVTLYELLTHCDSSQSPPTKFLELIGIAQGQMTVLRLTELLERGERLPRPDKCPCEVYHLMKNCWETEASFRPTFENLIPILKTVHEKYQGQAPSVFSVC

Experiments:
JAK2 = JAK2 (Homo sapiens, UniProt O60674); assay: JAK2 IC50 measurement
JAK1 [1] = molecular target: T1, JAK1 (Homo sapiens, UniProt P23458); assay: JAK1 IC50 measurement
TYK2 [2] = molecular target: T2, TYK2 (Homo sapiens, UniProt P29597); assay: TYK2 IC50 measurement
JAK1 [3] = molecular target: T1, JAK1; assay: Cell-based assay on Janus kinase inhibitors, JAK1 (GI50); settings: read-out: GI50(μM) JAK1
TYK2 [4] = molecular target: T2, TYK2; assay: Cell-based assay on Janus kinase inhibitors, TYK2 (GI50); settings: read-out: GI50(μM) TYK2
JAK3 = molecular target: T3, JAK3 (Homo sapiens, UniProt P52333); assay: JAK3 IC50 measurement
T3 sequence (P52333 1-1124): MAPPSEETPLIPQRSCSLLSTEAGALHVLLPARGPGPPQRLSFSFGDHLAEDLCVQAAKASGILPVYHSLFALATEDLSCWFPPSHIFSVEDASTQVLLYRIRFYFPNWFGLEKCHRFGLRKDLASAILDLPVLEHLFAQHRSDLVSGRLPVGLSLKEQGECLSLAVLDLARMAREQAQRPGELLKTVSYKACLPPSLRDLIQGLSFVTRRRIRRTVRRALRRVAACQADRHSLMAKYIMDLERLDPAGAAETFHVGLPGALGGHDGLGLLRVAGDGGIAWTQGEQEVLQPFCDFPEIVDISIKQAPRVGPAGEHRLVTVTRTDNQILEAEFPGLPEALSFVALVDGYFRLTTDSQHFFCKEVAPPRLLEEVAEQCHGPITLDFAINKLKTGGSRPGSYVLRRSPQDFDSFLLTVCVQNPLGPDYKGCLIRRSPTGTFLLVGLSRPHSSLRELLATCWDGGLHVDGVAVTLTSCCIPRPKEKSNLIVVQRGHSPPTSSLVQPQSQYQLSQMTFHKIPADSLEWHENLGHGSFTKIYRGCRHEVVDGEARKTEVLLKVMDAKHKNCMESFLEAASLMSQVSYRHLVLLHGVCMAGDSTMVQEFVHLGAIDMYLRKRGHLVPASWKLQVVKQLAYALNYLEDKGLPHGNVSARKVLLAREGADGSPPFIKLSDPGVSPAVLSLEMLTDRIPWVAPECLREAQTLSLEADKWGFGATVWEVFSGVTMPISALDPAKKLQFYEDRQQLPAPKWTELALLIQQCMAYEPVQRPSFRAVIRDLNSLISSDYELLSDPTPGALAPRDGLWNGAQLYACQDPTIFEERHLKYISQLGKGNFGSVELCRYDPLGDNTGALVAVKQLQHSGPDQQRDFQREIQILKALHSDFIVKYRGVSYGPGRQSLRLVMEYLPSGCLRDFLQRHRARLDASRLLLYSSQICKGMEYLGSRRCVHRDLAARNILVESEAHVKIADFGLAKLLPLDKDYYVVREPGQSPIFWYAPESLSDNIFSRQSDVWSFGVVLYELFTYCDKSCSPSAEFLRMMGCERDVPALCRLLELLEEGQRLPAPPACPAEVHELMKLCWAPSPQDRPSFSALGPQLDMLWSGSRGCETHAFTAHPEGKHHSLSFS

Row | Compound | IC50 (JAK2) [µM] | IC50 (JAK1 [1]) [µM] | GI50 (JAK1 [3]) [µM] | further results
1 | CNC(=O)c1cnc2[nH]ccc2c1N[C@H]1CCN(Cc2ccc(OC)cc2)[C@@H](C)C1 (relative stereo) [Compound 20i, 4-((cis-1-(4-Methoxybenzyl)-2-methylpiperidin-4-yl)amino)-N-methyl-1H-pyrrolo[2,3-b]pyridine-5-carboxamide] | 0.0632 | – | – | –
2 | CNC(=O)c1cnc2[nH]ccc2c1N[C@H]1CCN(Cc2ccc(C#N)cc2)[C@@H](C)C1 (relative stereo) [Compound 20j, 4-((cis-1-(4-Cyanobenzyl)-2-methylpiperidin-4-yl)amino)-N-methyl-1H-pyrrolo[2,3-b]pyridine-5-carboxamide] | 0.0045 | – | – | –
3 | CNC(=O)c1cnc2[nH]ccc2c1N[C@@H]1CCN(Cc2cccc(Cl)c2)C[C@H]1F (relative stereo) [Compound 21a, 4-((trans-1-(3-Chlorobenzyl)-3-fluoropiperidin-4-yl)amino)-N-methyl-1H-pyrrolo[2,3-b]pyridine-5-carboxamide] | 0.028 | 0.017 | – | IC50 (TYK2 [2]): 0.308 µM
4 | CNC(=O)c1cnc2[nH]ccc2c1N[C@@H]1CCN(Cc2cccc(OC)c2)C[C@@H]1F (relative stereo) [Compound 21b, 4-((cis-3-Fluoro-1-(3-methoxybenzyl)piperidin-4-yl)amino)-N-methyl-11H-pyrrolo[2,3-b]pyridine-5-carboxamide] | – | 0.00077 | 0.178 | GI50 (TYK2 [4]): 8.24 µM; IC50 (TYK2 [2]): 0.116 µM
5 | CNC(=O)c1cnc2[nH]ccc2c1NC1CC2CCC(C1)N2Cc1ccc(Cl)cc1 (centres unmarked) [Compound 17c, 4-((8-(4-Chlorobenzyl)-8-azabicyclo[3.2.1]octan-3-yl)amino)-N-methyl-1H-pyrrolo[2,3-b]pyridine-5-carboxamide] | – | – | 1.17 | IC50 (JAK1 [1]; read-out: IC50(μM) JAK1): 0.0174 µM
6 | CNC(=O)c1cnc2[nH]ccc2c1NC1CC2CCC(C1)N2Cc1cccc(C#N)c1 (centres unmarked) [Compound 17f, 4-((8-(3-Cyanobenzyl)-8-azabicyclo[3.2.1]octan-3-yl)amino)-N-methyl-1H-pyrrolo[2,3-b]pyridine-5-carboxamide] | – | 0.00767 | – | Selectivity for JAK1 JAK2/JAK1 (JAK2): 7.66; Selectivity for JAK1 JAK3/JAK1 (JAK3): 5.83; Selectivity for JAK1 TYK2/JAK1 (TYK2 [2]; ratio of IC50 values): 12.0
7 | CNC(=O)c1cnc2[nH]ccc2c1NC1CCCN(Cc2cccc(Cl)c2)CC1 (centres unmarked) [Compound 19b, 4-((1-(3-Chlorobenzyl)azepan-4-yl)amino)-N-methyl-1H-pyrrolo[2,3-b]pyridine-5-carboxamide] | – | – | 0.472 | IC50 (JAK1 [1]; read-out: IC50(μM) JAK1): 0.00943 µM
